Patent US20240360179A1, “STAPLED PEPTIDES AND METHODS THEREOF” (FOG PHARMACEUTICALS, INC., priority 2021, published 2024)

Chains of the proteins cited; added tags and fusions are not shown.
UniProt P35222, whole entry: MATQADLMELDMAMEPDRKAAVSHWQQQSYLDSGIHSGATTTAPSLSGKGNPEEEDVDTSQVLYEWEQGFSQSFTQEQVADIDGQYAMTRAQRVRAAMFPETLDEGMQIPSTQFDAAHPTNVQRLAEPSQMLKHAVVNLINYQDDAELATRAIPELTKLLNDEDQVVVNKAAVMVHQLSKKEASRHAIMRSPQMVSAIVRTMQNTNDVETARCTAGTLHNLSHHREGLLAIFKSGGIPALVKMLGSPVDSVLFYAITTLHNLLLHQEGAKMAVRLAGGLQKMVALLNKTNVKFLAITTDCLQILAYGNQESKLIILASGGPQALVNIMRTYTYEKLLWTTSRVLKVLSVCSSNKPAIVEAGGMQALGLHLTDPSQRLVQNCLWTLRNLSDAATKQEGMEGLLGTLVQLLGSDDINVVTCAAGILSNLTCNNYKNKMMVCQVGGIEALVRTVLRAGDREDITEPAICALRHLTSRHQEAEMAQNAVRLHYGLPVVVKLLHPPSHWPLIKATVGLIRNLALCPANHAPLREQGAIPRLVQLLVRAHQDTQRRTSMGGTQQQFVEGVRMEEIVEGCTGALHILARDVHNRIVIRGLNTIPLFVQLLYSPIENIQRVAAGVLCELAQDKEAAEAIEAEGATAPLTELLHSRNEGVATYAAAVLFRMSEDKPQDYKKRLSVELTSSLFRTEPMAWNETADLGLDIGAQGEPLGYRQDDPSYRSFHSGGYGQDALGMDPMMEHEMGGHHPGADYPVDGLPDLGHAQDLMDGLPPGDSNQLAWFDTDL

The molecules below were run against T1, full-length B-Catenin (Uniprot ID P35222) (Homo sapiens, UniProt P35222) (assay: biochemical). Conditions: beta-Catenin FP IC50 (nM), competition fluorescence polarization.
T1 construct: 10 nM full-length B-Catenin (Uniprot ID P35222)
Format: binding

`CC(=O)N1CCC[C@]12CCCCCCC1(CCCCCCCCOC(=O)N3CC[C@@]4(C3)NC(=O)[C@H](CCC(=O)NCCCC[C@@H](C(N)=O)NC(=O)[C@H](Cc3csc5ccccc35)NC(=O)[C@H](Cc3ccsc3)NC4=O)NC(=O)[C@H](Cc3ccccc3)NC(=O)[C@H](C)NC(=O)[C@H](CCCCNC(C)C)NC(=O)[C@H](CCC(N)=O)NC(=O)[C@H](CC(=O)O)NC1=O)NC(=O)[C@H](CC1CCCCC1)NC(=O)[C@H](CC(N)=O)NC2=O` (relative stereo) [I-158, Ac-PL3-Asn-Cha-B5-Asp-Gln-iPrLys-Ala-Phe-GlnR*3-PyrS2-3Thi-BztA-Lys*3-NH2] and `CC(=O)N1CCC[C@]12CCCCCCC1(CCCCCCCCOC(=O)N3CC[C@@]4(C3)NC(=O)[C@H](CCCCNC(=O)CC[C@@H](C(=O)N[C@@H](C)C(N)=O)NC(=O)[C@H](Cc3csc5ccccc35)NC(=O)[C@H](Cc3ccsc3)NC4=O)NC(=O)[C@H](Cc3ccccc3)NC(=O)[C@H](C)NC(=O)C(C)(C)NC(=O)[C@H](Cc3cccc(C(=O)O)c3)NC(=O)[C@H](CC(=O)O)NC1=O)NC(=O)[C@H](CC(C)(C)C)NC(=O)[C@H](CCO)NC2=O` (relative stereo) [I-174, Ac-PL3-Hse-Npg-B5-Asp-3COOHF-Aib-Ala-Phe-Lys*3-PyrS2-3Thi-BztA-GlnR*3-Ala-NH2] cannot be ordered by IC50: greater than 1000 nM for the first, greater than 1000 nM for the second.

Compared with `CC(=O)N1CCC[C@]12CC=CCCCC1(CCCC=CCCCOC(=O)N3CC[C@@]4(C3)NC(=O)[C@H](CCCCNC(=O)CC[C@@H](C(=O)N[C@@H](C)C(N)=O)NC(=O)[C@H](Cc3csc5ccccc35)NC(=O)[C@H](Cc3ccsc3)NC4=O)NC(=O)[C@H](Cc3ccccc3)NC(=O)[C@H](C)NC(=O)C(C)(C)NC(=O)[C@H](Cc3cccc(C(=O)O)c3)NC(=O)[C@H](CC(=O)O)NC1=O)NC(=O)[C@H](CC(C)(C)C)NC(=O)[C@H]([C@@H](C)O)NC2=O` (relative stereo) [I-161, Ac-PL3-Thr-Npg-B5-Asp-3COOHF-Aib-Ala-Phe-Lys*3-PyrS2-3Thi-BztA-GlnR*3-Ala-NH2], `CC(=O)N1CCC[C@]12CC=CCCCC1(CCCC=CCCCOC(=O)N3CC[C@@]4(C3)NC(=O)[C@H](CCCCNC(=O)CC[C@@H](C(=O)N[C@@H](C)C(N)=O)NC(=O)[C@H](Cc3csc5ccccc35)NC(=O)[C@H](Cc3ccsc3)NC4=O)NC(=O)[C@H](Cc3ccccc3)NC(=O)[C@H](C)NC(=O)C(C)(C)NC(=O)[C@H](Cc3cccc(C(=O)O)c3)NC(=O)[C@H]([C@@H](C)O)NC1=O)NC(=O)[C@H](CC(C)(C)C)NC(=O)[C@H](CC(=O)O)NC2=O` (relative stereo) [I-167, Ac-PL3-Asp-Npg-B5-Thr-3COOHF-Aib-Ala-Phe-Lys*3-PyrS2-3Thi-BztA-GlnR*3-Ala-NH2] is higher in IC50: 200 to 750 nM for the first, greater than 1000 nM for the second.

First: CC(=O)N1CCC[C@]12CCCCCCC1(CCCCCCCCOC(=O)N3CC[C@@]4(C3)NC(=O)[C@H](CCCCNC(=O)CC[C@@H](C(=O)N[C@@H](C)C(N)=O)NC(=O)[C@H](Cc3csc5ccccc35)NC(=O)[C@H](Cc3ccsc3)NC4=O)NC(=O)[C@H](Cc3ccccc3)NC(=O)[C@H](C)NC(=O)C(C)(C)NC(=O)[C@H](Cc3cccc(C(=O)O)c3)NC(=O)[C@H](CC(=O)O)NC1=O)NC(=O)[C@H](CC(C)(C)C)NC(=O)[C@H](CO)NC2=O (relative stereo) [I-172, Ac-PL3-Ser-Npg-B5-Asp-3COOHF-Aib-Ala-Phe-Lys*3-PyrS2-3Thi-BztA-GlnR*3-Ala-NH2]
Second: CC(=O)N1CCC[C@]12CCCCCCC1(CCCCCCCCOC(=O)N3CC[C@@]4(C3)NC(=O)[C@H](CCCCNC(=O)CC[C@@H](C(=O)N[C@@H](C)C(N)=O)NC(=O)[C@H](Cc3csc5ccccc35)NC(=O)[C@H](Cc3ccsc3)NC4=O)NC(=O)[C@H](Cc3ccccc3)NC(=O)[C@H](C)NC(=O)C(C)(C)NC(=O)[C@H](Cc3cccc(C(=O)O)c3)NC(=O)[C@H](CC(=O)O)NC1=O)NC(=O)[C@H](CC(C)(C)C)NC(=O)[C@H]([C@@H](C)O)NC2=O (relative stereo) [I-173, Ac-PL3-Thr-Npg-B5-Asp-3COOHF-Aib-Ala-Phe-Lys*3-PyrS2-3Thi-BztA-GlnR*3-Ala-NH2]
The IC50 of the first is lower: 750 to 1000 nM for the first, greater than 1000 nM for the second.
